Molecular target: human ACC2 (Homo sapiens (Human), UniProt O00763)
Experiment: ACC2 assay, spectrophotometric 384 well assay (NADH-linked, coupled lactate dehydrogenase/pyruvate kinase reaction)
Format: biochemical
Conditions: hACC2 construct lacking the 128 N-terminal amino acids; 25° C., 340 nm over 15 minutes

Amino acid sequences for entries named in this document (tags omitted). Residues count along the entry.
UniProt O00763, 129-2458 limits assumed: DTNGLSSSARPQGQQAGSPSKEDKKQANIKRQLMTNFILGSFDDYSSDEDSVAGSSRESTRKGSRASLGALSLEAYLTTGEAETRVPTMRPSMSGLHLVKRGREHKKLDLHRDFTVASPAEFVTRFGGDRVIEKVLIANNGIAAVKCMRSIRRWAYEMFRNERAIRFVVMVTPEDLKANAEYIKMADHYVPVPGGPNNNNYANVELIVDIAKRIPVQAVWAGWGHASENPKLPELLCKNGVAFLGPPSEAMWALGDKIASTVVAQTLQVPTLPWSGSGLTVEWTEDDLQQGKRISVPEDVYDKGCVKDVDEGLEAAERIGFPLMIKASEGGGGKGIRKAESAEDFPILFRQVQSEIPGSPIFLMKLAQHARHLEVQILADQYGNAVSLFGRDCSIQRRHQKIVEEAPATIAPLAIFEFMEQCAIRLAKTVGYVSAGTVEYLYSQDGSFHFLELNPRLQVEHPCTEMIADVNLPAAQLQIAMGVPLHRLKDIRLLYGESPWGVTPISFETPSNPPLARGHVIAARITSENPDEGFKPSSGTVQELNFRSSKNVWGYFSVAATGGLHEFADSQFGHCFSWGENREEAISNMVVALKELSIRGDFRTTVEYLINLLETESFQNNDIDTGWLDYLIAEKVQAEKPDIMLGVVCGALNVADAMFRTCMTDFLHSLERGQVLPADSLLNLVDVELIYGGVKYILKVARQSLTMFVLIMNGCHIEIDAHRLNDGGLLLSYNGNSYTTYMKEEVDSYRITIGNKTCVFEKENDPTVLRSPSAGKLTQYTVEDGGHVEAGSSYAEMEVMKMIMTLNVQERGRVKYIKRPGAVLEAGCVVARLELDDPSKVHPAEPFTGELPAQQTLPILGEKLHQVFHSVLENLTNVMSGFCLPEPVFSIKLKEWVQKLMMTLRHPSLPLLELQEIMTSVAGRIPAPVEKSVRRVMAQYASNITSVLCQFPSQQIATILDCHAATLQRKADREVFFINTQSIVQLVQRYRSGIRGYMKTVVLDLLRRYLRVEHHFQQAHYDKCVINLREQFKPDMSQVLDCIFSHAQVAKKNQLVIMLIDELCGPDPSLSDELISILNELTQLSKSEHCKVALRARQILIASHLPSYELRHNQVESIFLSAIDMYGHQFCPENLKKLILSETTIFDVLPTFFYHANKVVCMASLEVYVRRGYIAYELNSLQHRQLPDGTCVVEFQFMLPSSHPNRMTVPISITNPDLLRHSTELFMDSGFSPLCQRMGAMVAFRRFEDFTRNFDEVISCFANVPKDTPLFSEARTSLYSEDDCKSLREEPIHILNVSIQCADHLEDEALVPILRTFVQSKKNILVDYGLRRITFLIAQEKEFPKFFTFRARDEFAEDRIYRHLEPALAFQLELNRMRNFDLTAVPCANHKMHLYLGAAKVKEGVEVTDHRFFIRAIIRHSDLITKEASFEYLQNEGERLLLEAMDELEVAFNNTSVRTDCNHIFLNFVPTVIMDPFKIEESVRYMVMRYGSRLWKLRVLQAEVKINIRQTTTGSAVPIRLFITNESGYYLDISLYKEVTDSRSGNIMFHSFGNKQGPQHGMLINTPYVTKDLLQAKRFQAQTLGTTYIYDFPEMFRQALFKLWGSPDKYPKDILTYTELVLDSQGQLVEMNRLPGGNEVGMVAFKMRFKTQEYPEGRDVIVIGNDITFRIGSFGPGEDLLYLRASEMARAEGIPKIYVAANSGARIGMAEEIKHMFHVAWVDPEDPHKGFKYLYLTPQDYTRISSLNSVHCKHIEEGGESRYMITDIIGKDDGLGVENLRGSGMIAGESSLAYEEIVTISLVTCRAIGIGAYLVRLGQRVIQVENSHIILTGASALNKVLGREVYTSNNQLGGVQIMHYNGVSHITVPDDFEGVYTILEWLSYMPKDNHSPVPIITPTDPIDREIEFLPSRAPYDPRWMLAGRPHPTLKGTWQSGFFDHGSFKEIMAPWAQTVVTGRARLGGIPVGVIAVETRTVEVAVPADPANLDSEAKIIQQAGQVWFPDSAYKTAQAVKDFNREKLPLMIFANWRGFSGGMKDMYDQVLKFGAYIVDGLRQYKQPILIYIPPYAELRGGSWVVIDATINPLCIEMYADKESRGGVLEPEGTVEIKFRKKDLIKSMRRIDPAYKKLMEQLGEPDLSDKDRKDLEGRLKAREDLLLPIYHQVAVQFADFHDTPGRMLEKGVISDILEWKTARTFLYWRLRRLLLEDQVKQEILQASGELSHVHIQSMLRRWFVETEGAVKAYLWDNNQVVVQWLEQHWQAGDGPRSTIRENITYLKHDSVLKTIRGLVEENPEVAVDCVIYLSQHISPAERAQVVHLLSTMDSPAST

CCOc1ccc(C#Cc2ccc(CC(C)NC(=O)C3CC(OC)C3)cc2)cc1 (stereo not shown)
IC50: 860 nM

Source: patent publication US8835472B2, “Compounds, pharmaceutical compositions and uses thereof” (Boehringer Ingelheim International GmbH, priority 2010, dated 2014)
